{
  "source": "ChEMBL document CHEMBL5634090",
  "about": "“Design of phenothiazine-based cationic amphiphilic derivatives incorporating arginine residues: Potential membrane-active broad-spectrum antimicrobials combating pathogenic bacteria in vitro and in vivo” (Eur J Med Chem, 2023)",
  "test_system": "Pseudomonas aeruginosa",
  "assay": "Antibacterial activity against Pseudomonas aeruginosa ATCC 9027 by microbroth dilution assay",
  "format": "functional",
  "data": [
    {"smiles": "CC[C@H](C)[C@H](NC(=O)CN)C(=O)NCC(=O)N[C@@H](C)C(=O)N[C@H](C(=O)N[C@@H](CC(C)C)C(=O)N[C@@H](CCCCN)C(=O)N[C@H](C(=O)N[C@@H](CC(C)C)C(=O)N[C@H](C(=O)N[C@H](C(=O)NCC(=O)N[C@@H](CC(C)C)C(=O)N1CCC[C@H]1C(=O)N[C@@H](C)C(=O)N[C@@H](CC(C)C)C(=O)N[C@H](C(=O)N[C@@H](CO)C(=O)N[C@@H](Cc1c[nH]c2ccccc12)C(=O)N[C@H](C(=O)N[C@@H](CCCCN)C(=O)N[C@@H](CCCNC(=N)N)C(=O)N[C@@H](CCCCN)C(=O)N[C@@H](CCCNC(=N)N)C(=O)N[C@@H](CCC(N)=O)C(=O)N[C@@H](CCC(N)=O)C(N)=O)[C@@H](C)CC)[C@@H](C)CC)[C@@H](C)O)[C@@H](C)O)C(C)C)C(C)C", "note": "[MELITTIN]", "values": [
      {"measurement": "MIC", "result": 3.12, "unit": "µg/mL"}
    ]}
  ]
}
